# Antibody variant affinities, Ab-14 heavy chain, assay 1

Antigen: PDVDLGDISGINAS, a 14-residue peptide of the SARS-CoV-2 spike HR2 region.

The variants keep the light chain, the linker and the frameworks of Ab-14 (scFv order VH, three GGGGS repeats, VL).
VH: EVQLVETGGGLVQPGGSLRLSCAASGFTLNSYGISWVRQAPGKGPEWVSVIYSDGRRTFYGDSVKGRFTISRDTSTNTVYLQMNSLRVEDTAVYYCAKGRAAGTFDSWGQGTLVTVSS
VL: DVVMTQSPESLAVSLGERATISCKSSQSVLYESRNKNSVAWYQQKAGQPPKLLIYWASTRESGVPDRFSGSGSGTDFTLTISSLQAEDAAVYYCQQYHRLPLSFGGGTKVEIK

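The library (AAYL49) carries one to three amino acid substitutions per variant, with no insertions or deletions. The assay is AlphaSeq: two haploid yeast populations carry antibody and antigen on their surface. Mating (16 h, 30 °C) was followed by selection of diploids and sequencing of their barcodes. Read counts were normalised to the haploid input and turned into Kd by a linear fit to BCL2-family pairs of known affinity, for each replicate. Each pool was mated in three replicate cultures.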

Positions count from residue 1 of the parent VH; L29C puts C in place of L.
Every variant below is changed at L29 of the VH (sequential numbering).
Kd is apparent (estimated from mating counts) and averaged on the log scale over replicates with a signal. Smaller is tighter.
"no signal" means that the variant was in the library but no mating with the target was seen in any replicate; the authors take this as a sign of poor binding, and no number exists.
Background: pairings of library AAYL49 with three empty control strains gave a value in 15% of cases (median 11 µM, 5th percentile 680 nM). Values in that range, when seen in few replicates, are hard to tell from nonspecific mating.

* L29C Y32E -> no signal (0 of 3 replicates)
* L29D S31I S63G -> 410 µM (2 of 3 replicates)
* L29A S63R S107W -> no signal (0 of 3 replicates)
* L29K R57F -> 8.8 µM (1 of 3 replicates)
* L29S G103D T104N -> no signal (0 of 3 replicates)
* L29F T104G F105H -> no signal (0 of 3 replicates)
* L29A I34T F59I -> no signal (0 of 3 replicates)
* L29C R56T D62E -> no signal (0 of 3 replicates)
* L29Y S53Y K65F -> 410 nM (2 of 3 replicates)
* L29R F59R D62Y -> no signal (0 of 3 replicates)
* L29W F59A -> 110 nM (1 of 3 replicates)
* L29P Y52T Y60M -> no signal (0 of 3 replicates)
* L29S G55A S107P -> no signal (0 of 3 replicates)
* L29K S63H S107W -> no signal (0 of 3 replicates)
* L29A R57N G99F -> no signal (0 of 3 replicates)
* L29T R57A S107R -> 170 µM (2 of 3 replicates)
* L29R V64Y G103C -> no signal (0 of 3 replicates)
* L29F D54A -> 5.9 µM (1 of 3 replicates)
* L29D G61R V64G -> no signal (0 of 3 replicates)
* L29N F105D D106W -> no signal (0 of 3 replicates)
* L29P D54Y F59N -> no signal (0 of 3 replicates)
* L29P D62I -> 2.7 µM (2 of 3 replicates)
* L29K D54M -> 6.2 µM (1 of 3 replicates)
* L29I I51S G103C -> 850 nM (1 of 3 replicates)
* L29K Y52V F105S -> 16 µM (2 of 3 replicates)
* G26D L29I G33S -> 62 µM (1 of 3 replicates)
* L29F N30M D54L -> no signal (0 of 3 replicates)
* F27M L29I S107N -> 7.4 nM (3 of 3 replicates)
* L29I S53D G61W -> no signal (0 of 3 replicates)
* L29Y F59C G103I -> no signal (0 of 3 replicates)
* L29G Y60Q K65Q -> no signal (0 of 3 replicates)
* L29P G33I G55C -> no signal (0 of 3 replicates)
* F27K L29S G55Y -> no signal (0 of 3 replicates)
* L29D -> 2.6 µM (3 of 3 replicates)
* L29D Y32I G103Q -> no signal (0 of 3 replicates)
* L29H Y52N Y60A -> no signal (0 of 3 replicates)
* L29F G103Y F105Y -> no signal (0 of 3 replicates)
* L29C N30S I34E -> 82 µM (3 of 3 replicates)
* L29H Y60D A101M -> no signal (0 of 3 replicates)

Picked from the list: the 3 lowest averages where every replicate gave a value.

changes	apparent Kd	seen in
F27M L29I S107N	7.4 nM	3/3
L29D	2.6 µM	3/3
L29C N30S I34E	82 µM	3/3

Data: MIT Lincoln Laboratory AlphaSeq set, Engelhart et al. 2022, doi:10.1038/s41597-022-01779-4, as distributed in FLAb.